Measured values as given in ChEMBL document CHEMBL1148390, “Structural analysis and optimization of NK(1) receptor antagonists through modulation of atropisomer interconversion properties” (J Med Chem, 2004).

The chains behind the UniProt entries cited, without tags or fusion partners.
UniProt P79218, whole entry: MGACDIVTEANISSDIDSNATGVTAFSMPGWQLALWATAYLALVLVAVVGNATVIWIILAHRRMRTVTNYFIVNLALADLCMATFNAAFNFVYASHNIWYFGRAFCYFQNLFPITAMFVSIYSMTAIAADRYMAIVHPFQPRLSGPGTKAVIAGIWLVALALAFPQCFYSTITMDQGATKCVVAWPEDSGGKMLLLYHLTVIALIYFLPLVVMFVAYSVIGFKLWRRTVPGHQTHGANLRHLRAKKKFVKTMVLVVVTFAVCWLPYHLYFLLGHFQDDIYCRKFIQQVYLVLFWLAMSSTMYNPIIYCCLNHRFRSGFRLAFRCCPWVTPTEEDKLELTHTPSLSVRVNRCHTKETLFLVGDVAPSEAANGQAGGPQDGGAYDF

Tests used:
[1] = system: Substance-P receptor (Oryctolagus cuniculus); details: Artery, 100 nM
[2] = system: Substance-P receptor (Oryctolagus cuniculus); experiment: In vitro binding affinity towards Tachykinin receptor 1 was determined using rabbit pulmonary artery tissues
[3] = biological target: Substance-K receptor (Oryctolagus cuniculus) (UniProt P79218); experiment: In vitro binding affinity towards Tachykinin receptor 2 using rabbit pulmonary artery tissues
Procedure, shortened: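 Functional antagonism in isolated rabbit pulmonary artery (n = 2–6), reported as pKB. NK1 tested against agonist ASMSP with antagonist at 1 nM, or at 100 nM where antagonism was not purely competitive; NK2 tested against agonist BANK with antagonist at 1 μM. Where antagonism was not purely competitive, activity was taken as percent inhibition = 100 – maximum relaxation as % of control.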

[4] = system: Substance-K receptor (Oryctolagus cuniculus)
[5] = system: Substance-P receptor (Oryctolagus cuniculus); details: Artery, 10 nM

Compound | inhibition [1] | pKB [2] | further results
CCc1c(C#N)cc2ccccc2c1C(=O)N(C)C[C@@H](CCN1CCC(c2ccccc2[S@+](C)[O-])CC1)c1ccc(Cl)c(Cl)c1 (stereo in doubt; 3) | 62% | 9.56 | 
COc1c(C#N)cc2ccccc2c1C(=O)N(C)C[C@@H](CCN1CCC(c2ccccc2[S@+](C)[O-])CC1)c1ccc(Cl)c(Cl)c1 |  | 9.5 | pKB [3]: 7.5
CN(C[C@@H](CCN1CCC(c2ccccc2[S@+](C)[O-])CC1)c1ccc(Cl)c(Cl)c1)C(=O)c1cc(C#N)cc2ccccc12 |  | 9 | 

The next lines start with results.

inhibition [1] | pKB [2] | Compound | further results
22% |  | CCc1c(C#N)cc2ccccc2c1C(=O)N(C)C[C@@H](CCN1CCC(c2ccccc2[S@+](C)[O-])CC1)c1ccc(Cl)c(Cl)c1 (stereo in doubt; form 3) | 
51% |  | CCc1c(C#N)cc2ccccc2c1C(=O)N(C)C[C@@H](CCN1CCC(c2ccccc2[S@+](C)[O-])CC1)c1ccc(Cl)c(Cl)c1 (stereo in doubt; form 4) | pKB [4]: 7.79
89% |  | CCc1c(C#N)cc2ccccc2c1C(=O)N(C)C[C@@H](CCN1CCC(c2ccccc2[S@+](C)[O-])CC1)c1ccc(Cl)c(Cl)c1 (stereo in doubt; form 1) | inhibition [5]: < 10%
98% |  | CCc1c(C#N)cc2ccccc2c1C(=O)N(C)C[C@@H](CCN1CCC(c2ccccc2[S@+](C)[O-])CC1)c1ccc(Cl)c(Cl)c1 (stereo in doubt; form 2) | inhibition [5]: 73%
